Test results taken from ChEMBL document CHEMBL2390842, “Development of indole/indazole-aminopyrimidines as inhibitors of c-Jun N-terminal kinase (JNK): optimization for JNK potency and physicochemical properties” (Bioorg Med Chem Lett, 2013).

The chains behind the UniProt entries cited, without tags or fusion partners. Where a name states a change or a piece, a line headed by the entry shows the natural chain unless it says otherwise.
UniProt P45983: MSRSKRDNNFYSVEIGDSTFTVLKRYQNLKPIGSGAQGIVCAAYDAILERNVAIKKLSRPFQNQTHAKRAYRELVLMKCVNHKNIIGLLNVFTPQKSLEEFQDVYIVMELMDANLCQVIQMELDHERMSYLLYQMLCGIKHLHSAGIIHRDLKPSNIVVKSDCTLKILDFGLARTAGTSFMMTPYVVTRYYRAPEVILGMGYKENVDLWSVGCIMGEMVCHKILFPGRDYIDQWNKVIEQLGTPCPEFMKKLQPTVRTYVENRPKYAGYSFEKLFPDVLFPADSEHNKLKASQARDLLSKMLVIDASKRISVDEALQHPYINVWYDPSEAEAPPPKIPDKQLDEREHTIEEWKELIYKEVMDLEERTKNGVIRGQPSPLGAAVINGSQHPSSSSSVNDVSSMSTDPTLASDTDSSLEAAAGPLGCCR
UniProt P53779: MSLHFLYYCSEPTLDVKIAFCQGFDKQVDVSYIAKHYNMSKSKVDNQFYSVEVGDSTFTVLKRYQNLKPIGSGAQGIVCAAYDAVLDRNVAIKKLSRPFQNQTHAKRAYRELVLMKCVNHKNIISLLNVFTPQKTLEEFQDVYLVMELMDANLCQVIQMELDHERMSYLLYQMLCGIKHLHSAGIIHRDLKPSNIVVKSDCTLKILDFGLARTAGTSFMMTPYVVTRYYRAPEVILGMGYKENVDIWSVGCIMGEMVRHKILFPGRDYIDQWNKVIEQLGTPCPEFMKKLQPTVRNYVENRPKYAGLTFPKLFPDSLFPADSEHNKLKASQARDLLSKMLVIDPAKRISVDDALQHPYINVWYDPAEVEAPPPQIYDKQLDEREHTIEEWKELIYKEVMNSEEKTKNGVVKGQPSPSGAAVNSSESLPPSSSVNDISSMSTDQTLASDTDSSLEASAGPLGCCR
UniProt P45984: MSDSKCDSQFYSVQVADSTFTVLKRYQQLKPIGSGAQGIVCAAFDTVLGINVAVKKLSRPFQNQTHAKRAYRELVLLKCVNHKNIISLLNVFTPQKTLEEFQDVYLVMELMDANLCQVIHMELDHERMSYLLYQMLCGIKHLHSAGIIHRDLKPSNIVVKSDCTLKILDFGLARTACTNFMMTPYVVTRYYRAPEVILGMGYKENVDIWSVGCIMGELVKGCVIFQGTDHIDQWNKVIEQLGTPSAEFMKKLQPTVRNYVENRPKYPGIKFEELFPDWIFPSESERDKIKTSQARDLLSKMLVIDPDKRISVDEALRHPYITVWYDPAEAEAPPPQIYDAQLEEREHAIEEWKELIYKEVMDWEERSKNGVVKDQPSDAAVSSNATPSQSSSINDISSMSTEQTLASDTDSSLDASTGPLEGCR

What was measured:
[1] = target: T1, Mitogen-activated protein kinase 8 (Homo sapiens, UniProt P45983); test: Inhibition of human JNK1alpha1 using GST-tagged ATF2 as substrate preincubated for 10 mins prior to substrate addition measured after 30 mins by microplate scintillation counting analysis
[2] = target: c-Jun N-terminal kinase, JNK (Homo sapiens, UniProt P45983+P53779+P45984); test: Inhibition of JNK-mediated c-Jun activation in TNFalpha-induced human SW1353 cells preincubated for 30 mins prior to TNFalpha treatment measured after 20 mins; format: cell-based
[3] = target: T1, Mitogen-activated protein kinase 8; test: Binding affinity to JNK1 (unknown origin)
[4] = target: Mitogen-activated protein kinase 9 (Homo sapiens, UniProt P45984); test: Inhibition of human JNK2alpha2 using GST-tagged ATF2 as substrate preincubated for 10 mins prior to substrate addition measured after 30 mins by microplate scintillation counting analysis

CS(=O)(=O)C1CCN(c2cccc3c2ccn3-c2ccnc(N[C@H]3CC[C@H](O)CC3)n2)CC1
IC50 [1]: 3 nM
IC50 [2]: 240 nM
Kd [3]: 0.14 nM

CS(=O)(=O)C1CCN(c2cccc3c2ccn3-c2ccnc(N[C@H]3CC[C@@](C)(O)CC3)n2)CC1
IC50 [1]: 12 nM
IC50 [2]: 1300 nM
IC50 [4]: 66 nM
